Our source for the IC50 values is patent US8871934B2, “Fluorene compound and pharmaceutical use thereof” (Japan Tobacco Inc., priority 2008, dated 2014).

The experiment concerns the target human PDHK2 (hPDHK2) (Homo sapiens (Human), UniProt Q15119). The experiment can be described thus: Inhibitory action of PDHK activity in vitro (kinase reaction, residual PDH activity measured). It is filed as biochemical. Here is the method: In the case of human PDHK2 (hPDHK2, Genbank Accession No. NM_002611), modified hPDHK2 cDNA wherein FLAG-Tag sequence is added to the N terminal by a polymerase linkage reaction was prepared based on hPDHK2 cDNA clone (pReceiver-M01/PDK2-GeneCopoeia), and cloned into a vector (pET17b-Novagen). The recombinant construct was transformed into Escherichia coli (DH5α-TOYOBO). The recombinant clones were identified, plasmid DNA was isolated and subjected to the DNA sequence analysis. One clone which had the expected nucleic acid sequence was selected for expression work.
During the assay, the hPDHK2 enzyme concentration was set to the minimal concentration at which PDH is inhibited the most.
0.05 U/mL PDH (porcine heart PDH complex, Sigma P7032) and 1.6 μg/mL hPDHK2 were mixed in a buffer (50 mmol/L 3-morpholinopropanesulfonic acid (pH 7.0), 20 mmol/L dipotassium hydrogen phosphate, 60 mmol/L potassium chloride, 2 mmol/L magnesium chloride, 0.4 mmol/L EDTA, and 0.2% Pluronic F-68, 2 mmol/L dithiothreitol), the mixture was incubated at 4° C. overnight to give PDH/hPDHK2 complex. The test compound was diluted with dimethyl sulfoxide (DMSO). […] The mixture was incubated at room temperature for 90 min, and the residual PDH activity was measured. The absorbance at 340 nm before and after PDH reaction was measured on a microplate reader to detect NADH produced by the PDH reaction. […]

Read-outs that look alike come from different tables or passages of the source.

In the case of `CN(C)C(=O)Oc1ccc2c(c1)C(O)(C(F)(F)F)c1ccccc1-2` (centres unmarked) [compound 237], the IC50 reads like this: (PDHK inhibitory activity, class symbol of IC50) greater than 1 µM; (read-out: PDHK inhibitory activity IC50) 2 µM.

For orientation: IC50 means the midpoint of a concentration-inhibition curve.
